The values below are quoted from earlier work in patent publication US11717549B2, “Steviol glycoside solubility enhancers” (CARGILL, INCORPORATED, priority 2017, dated 2023).

This is a selection: effects in other tests are not listed, and their absence says nothing.

For the data set the following is noted: temperature 23 ° C.; cited from earlier work.

As to `O=C(O)c1c([N+](=O)[O-])cc([N+](=O)[O-])cc1[N+](=O)[O-]`, the “solubility (ppm)” value was 1.97E+04 ppm.
